Experiments:
[1] = adsorption onto glass container in liquid form; format: physicochemical
[2] = solubility and stability characteristics compared to human amylin; format: physicochemical

CC[C@H](C)[C@H](NC(=O)[C@@H]1CCCN1C(=O)CNC(=O)[C@H](Cc1ccccc1)NC(=O)[C@H](CC(N)=O)NC(=O)[C@H](CC(N)=O)NC(=O)[C@H](CO)NC(=O)[C@H](CO)NC(=O)[C@H](Cc1c[nH]cn1)NC(=O)[C@@H](NC(=O)[C@H](CC(C)C)NC(=O)[C@H](Cc1ccccc1)NC(=O)[C@H](CC(N)=O)NC(=O)[C@H](C)NC(=O)[C@H](CC(C)C)NC(=O)[C@H](CCCNC(=N)N)NC(=O)[C@H](CCC(N)=O)NC(=O)[C@@H](NC(=O)[C@H](C)NC(=O)[C@@H]1CSSC[C@H](NC(=O)[C@@H](N)CCCCN)C(=O)N[C@@H](CC(N)=O)C(=O)N[C@@H]([C@@H](C)O)C(=O)N[C@@H](C)C(=O)N[C@@H]([C@@H](C)O)C(=O)N1)[C@@H](C)O)C(C)C)C(=O)N[C@@H](CC(C)C)C(=O)N1CCC[C@H]1C(=O)N1CCC[C@H]1C(=O)N[C@H](C(=O)N[C@@H](CC(N)=O)C(=O)N[C@H](C(=O)NCC(=O)N[C@@H](CO)C(=O)N[C@@H](CC(N)=O)C(=O)N[C@H](C(=O)N[C@@H](Cc1ccc(O)cc1)C(N)=O)[C@@H](C)O)C(C)C)[C@@H](C)O [^25,28,29Pro-h-amylin, reference compound]
tendency to adsorb onto the glass in a glass container [1]: does not have a tendency to adsorb onto the glass | solubility and stability characteristics [2]: more desirable solubility and stability characteristics

CC(C)C[C@H](NC(=O)[C@H](CCCNC(=N)N)NC(=O)[C@H](CCC(N)=O)NC(=O)[C@@H](NC(=O)[C@H](C)NC(=O)[C@@H]1CSSC[C@H](NC(=O)[C@@H](N)CCCCN)C(=O)N[C@@H](CC(N)=O)C(=O)N[C@@H]([C@@H](C)O)C(=O)N[C@@H](C)C(=O)N[C@@H]([C@@H](C)O)C(=O)N1)[C@@H](C)O)C(=O)N[C@@H](C)C(=O)N[C@@H](CC(N)=O)C(=O)N[C@@H](Cc1ccccc1)C(=O)N[C@@H](CC(C)C)C(=O)N[C@H](C(=O)N[C@@H](Cc1c[nH]cn1)C(=O)N[C@@H](CO)C(=O)N[C@@H](CO)C(=O)N[C@@H](CC(N)=O)C(=O)N[C@@H](CC(N)=O)C(=O)N[C@@H](Cc1ccccc1)C(=O)NCC(=O)N1CCC[C@H]1C(=O)N[C@H](C(=O)N[C@@H](CC(C)C)C(=O)N1CCC[C@H]1C(=O)N1CCC[C@H]1C(=O)N[C@H](C(=O)N[C@@H](CC(N)=O)C(=O)N[C@H](C(=O)NCC(=O)N[C@@H](CO)C(=O)N[C@@H](CC(N)=O)C(=O)N[C@H](C(=O)N[C@@H](Cc1ccc(O)cc1)C(N)=O)[C@@H](C)O)C(C)C)[C@@H](C)O)C(C)C)C(C)C [^25Pro^26Val^28,29Pro-h-amylin]
solubility and stability characteristics [2]: more desirable solubility and stability characteristics

CC[C@H](C)[C@H](NC(=O)[C@@H]1CCCN1C(=O)CNC(=O)[C@H](Cc1ccccc1)NC(=O)[C@H](CC(N)=O)NC(=O)[C@H](CC(N)=O)NC(=O)[C@H](CO)NC(=O)[C@H](CO)NC(=O)[C@H](CCCNC(=N)N)NC(=O)[C@@H](NC(=O)[C@H](CC(C)C)NC(=O)[C@H](Cc1ccccc1)NC(=O)[C@H](CC(N)=O)NC(=O)[C@H](C)NC(=O)[C@H](CC(C)C)NC(=O)[C@H](CCCNC(=N)N)NC(=O)[C@H](CCC(N)=O)NC(=O)[C@@H](NC(=O)[C@H](C)NC(=O)[C@@H]1CSSC[C@H](NC(=O)[C@@H](N)CCCCN)C(=O)N[C@@H](CC(N)=O)C(=O)N[C@@H]([C@@H](C)O)C(=O)N[C@@H](C)C(=O)N[C@@H]([C@@H](C)O)C(=O)N1)[C@@H](C)O)C(C)C)C(=O)N[C@@H](CC(C)C)C(=O)N1CCC[C@H]1C(=O)N[C@@H](CO)C(=O)N[C@H](C(=O)N[C@@H](CC(N)=O)C(=O)N[C@H](C(=O)NCC(=O)N[C@@H](CO)C(=O)N[C@@H](CC(N)=O)C(=O)N[C@H](C(=O)N[C@@H](Cc1ccc(O)cc1)C(N)=O)[C@@H](C)O)C(C)C)[C@@H](C)O [^18Arg^25,28Pro-h-amylin]
solubility and stability characteristics [2]: more desirable solubility and stability characteristics

From patent US7671023B2 (Amylin Pharmaceuticals, Inc., priority 2005, dated 2010)
